Measurements reported in IntAct's records for PubMed 35512704.

B1: RAC-alpha serine/threonine-protein kinase (Homo sapiens), P31749 (parent)
chain: MSDVAIVKEGWLHKRGEYIKTWRPRYFLLKNDGTFIGYKERPQDVDQREAPLNNFSVAQCQLMKTERPRPNTFIIRCLQWTTVIERTFHVETPEEREEWTTAIQTVADGLKKQEEEEMDFRSGSPSDNSGAEEMEVSLAKPKHRVTMNEFEYLKLLGKGTFGKVILVKEKATGRYYAMKILKKEVIVAKDEVAHTLTENRVLQNSRHPFLTALKYSFQTHDRLCFVMEYANGGELFFHLSRERVFSEDRARFYGAEIVSALDYLHSEKNVVYRDLKLENLMLDKDGHIKITDFGLCKEGIKDGATMKTFCGTPEYLAPEVLEDNDYGRAVDWWGLGVVMYEMMCGRLPFYNQDHEKLFELILMEEIRFPRTLGPEAKSLLSGLLKKDPKQRLGGGSEDAKEIMQHRFFAGIVWQHVYEKKLSPPFKPQVTSETDTRYFDEEFTAQMITITPPDQDDSMECVDSERRPHFPQFSYSASGTA
partner: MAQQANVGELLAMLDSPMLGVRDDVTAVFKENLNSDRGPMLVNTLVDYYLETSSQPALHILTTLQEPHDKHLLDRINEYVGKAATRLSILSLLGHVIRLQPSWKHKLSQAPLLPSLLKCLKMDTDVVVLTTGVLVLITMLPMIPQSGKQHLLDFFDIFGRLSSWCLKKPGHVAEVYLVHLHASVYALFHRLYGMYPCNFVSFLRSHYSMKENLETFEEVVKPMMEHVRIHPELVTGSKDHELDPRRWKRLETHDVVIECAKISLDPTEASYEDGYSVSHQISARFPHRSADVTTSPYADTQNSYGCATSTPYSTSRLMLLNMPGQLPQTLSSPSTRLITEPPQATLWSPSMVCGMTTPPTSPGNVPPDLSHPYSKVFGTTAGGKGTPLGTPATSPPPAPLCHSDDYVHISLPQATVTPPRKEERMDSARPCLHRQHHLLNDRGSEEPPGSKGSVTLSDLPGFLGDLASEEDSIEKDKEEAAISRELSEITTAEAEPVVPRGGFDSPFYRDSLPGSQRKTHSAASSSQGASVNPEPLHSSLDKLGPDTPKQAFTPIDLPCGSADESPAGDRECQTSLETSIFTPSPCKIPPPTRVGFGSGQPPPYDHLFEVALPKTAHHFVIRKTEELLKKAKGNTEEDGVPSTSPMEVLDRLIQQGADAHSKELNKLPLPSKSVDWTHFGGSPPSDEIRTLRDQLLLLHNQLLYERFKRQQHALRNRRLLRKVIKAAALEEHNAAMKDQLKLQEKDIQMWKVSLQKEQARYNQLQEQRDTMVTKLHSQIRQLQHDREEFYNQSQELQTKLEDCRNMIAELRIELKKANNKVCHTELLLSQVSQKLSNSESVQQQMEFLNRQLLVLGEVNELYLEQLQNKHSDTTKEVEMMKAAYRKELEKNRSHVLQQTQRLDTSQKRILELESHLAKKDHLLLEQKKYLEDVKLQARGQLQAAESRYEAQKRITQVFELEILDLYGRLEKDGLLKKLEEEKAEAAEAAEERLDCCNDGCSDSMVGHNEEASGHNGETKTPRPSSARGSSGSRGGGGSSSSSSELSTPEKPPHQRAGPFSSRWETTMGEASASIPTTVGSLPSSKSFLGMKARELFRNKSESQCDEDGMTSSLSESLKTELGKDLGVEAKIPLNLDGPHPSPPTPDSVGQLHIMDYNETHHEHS
B2: RAC-alpha serine/threonine-protein kinase (Homo sapiens), P31749 (parent)
chain: B1 chain
partner: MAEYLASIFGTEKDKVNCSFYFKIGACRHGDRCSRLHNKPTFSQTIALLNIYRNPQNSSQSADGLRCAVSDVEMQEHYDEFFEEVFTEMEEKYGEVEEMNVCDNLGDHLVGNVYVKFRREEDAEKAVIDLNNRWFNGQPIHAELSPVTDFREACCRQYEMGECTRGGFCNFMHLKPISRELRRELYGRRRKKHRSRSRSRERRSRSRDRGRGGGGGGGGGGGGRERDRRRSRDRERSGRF
B3: RAC-alpha serine/threonine-protein kinase (Homo sapiens), P31749 (parent)
chain: B1 chain
partner: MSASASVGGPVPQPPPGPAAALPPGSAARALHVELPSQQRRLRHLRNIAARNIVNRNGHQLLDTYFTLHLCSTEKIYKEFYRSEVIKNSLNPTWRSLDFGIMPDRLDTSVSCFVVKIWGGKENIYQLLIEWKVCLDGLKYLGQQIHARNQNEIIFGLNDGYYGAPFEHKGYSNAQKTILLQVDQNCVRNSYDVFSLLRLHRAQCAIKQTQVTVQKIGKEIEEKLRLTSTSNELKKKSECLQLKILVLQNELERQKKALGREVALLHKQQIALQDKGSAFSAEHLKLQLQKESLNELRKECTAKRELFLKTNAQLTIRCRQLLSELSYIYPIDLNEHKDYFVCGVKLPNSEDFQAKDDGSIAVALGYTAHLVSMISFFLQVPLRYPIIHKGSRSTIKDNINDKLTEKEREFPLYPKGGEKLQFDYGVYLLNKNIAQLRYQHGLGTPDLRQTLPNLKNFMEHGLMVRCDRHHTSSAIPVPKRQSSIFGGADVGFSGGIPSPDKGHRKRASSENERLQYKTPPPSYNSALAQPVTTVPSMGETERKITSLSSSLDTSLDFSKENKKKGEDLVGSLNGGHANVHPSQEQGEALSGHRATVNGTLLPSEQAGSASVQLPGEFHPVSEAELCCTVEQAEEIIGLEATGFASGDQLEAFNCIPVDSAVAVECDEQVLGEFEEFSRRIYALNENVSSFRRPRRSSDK
B4: RAC-alpha serine/threonine-protein kinase (Homo sapiens), P31749 (parent)
chain: B1 chain
partner: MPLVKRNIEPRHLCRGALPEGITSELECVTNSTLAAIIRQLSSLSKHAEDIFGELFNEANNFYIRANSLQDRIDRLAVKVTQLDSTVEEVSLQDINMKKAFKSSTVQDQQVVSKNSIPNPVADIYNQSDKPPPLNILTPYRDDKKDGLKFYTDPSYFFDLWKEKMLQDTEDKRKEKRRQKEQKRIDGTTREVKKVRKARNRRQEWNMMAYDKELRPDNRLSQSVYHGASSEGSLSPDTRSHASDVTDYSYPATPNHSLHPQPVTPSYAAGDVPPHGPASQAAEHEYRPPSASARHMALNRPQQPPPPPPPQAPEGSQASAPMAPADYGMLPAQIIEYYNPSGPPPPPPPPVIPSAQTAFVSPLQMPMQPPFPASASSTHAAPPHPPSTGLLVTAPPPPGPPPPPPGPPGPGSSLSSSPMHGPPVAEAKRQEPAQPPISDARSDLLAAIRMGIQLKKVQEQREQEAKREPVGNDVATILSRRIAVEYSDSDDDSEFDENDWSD
B5: RAC-alpha serine/threonine-protein kinase (Homo sapiens), P31749 (parent)
chain: B1 chain
partner: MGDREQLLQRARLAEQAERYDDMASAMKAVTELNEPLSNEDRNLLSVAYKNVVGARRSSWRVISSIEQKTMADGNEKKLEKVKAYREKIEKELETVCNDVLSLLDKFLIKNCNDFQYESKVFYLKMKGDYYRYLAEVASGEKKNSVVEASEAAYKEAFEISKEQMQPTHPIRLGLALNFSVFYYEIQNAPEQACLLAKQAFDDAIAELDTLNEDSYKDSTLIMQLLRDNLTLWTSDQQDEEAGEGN
B6: RAC-alpha serine/threonine-protein kinase (Homo sapiens), P31749 (parent)
chain: B1 chain
partner: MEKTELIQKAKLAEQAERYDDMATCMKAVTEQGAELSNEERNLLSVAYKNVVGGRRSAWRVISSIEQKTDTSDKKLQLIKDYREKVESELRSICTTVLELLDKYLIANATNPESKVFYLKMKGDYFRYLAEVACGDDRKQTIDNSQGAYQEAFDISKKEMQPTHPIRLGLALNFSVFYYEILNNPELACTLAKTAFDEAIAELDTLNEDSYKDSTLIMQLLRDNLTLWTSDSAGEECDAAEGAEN
B7: RAC-alpha serine/threonine-protein kinase (Homo sapiens), P31749 (parent)
chain: B1 chain
partner: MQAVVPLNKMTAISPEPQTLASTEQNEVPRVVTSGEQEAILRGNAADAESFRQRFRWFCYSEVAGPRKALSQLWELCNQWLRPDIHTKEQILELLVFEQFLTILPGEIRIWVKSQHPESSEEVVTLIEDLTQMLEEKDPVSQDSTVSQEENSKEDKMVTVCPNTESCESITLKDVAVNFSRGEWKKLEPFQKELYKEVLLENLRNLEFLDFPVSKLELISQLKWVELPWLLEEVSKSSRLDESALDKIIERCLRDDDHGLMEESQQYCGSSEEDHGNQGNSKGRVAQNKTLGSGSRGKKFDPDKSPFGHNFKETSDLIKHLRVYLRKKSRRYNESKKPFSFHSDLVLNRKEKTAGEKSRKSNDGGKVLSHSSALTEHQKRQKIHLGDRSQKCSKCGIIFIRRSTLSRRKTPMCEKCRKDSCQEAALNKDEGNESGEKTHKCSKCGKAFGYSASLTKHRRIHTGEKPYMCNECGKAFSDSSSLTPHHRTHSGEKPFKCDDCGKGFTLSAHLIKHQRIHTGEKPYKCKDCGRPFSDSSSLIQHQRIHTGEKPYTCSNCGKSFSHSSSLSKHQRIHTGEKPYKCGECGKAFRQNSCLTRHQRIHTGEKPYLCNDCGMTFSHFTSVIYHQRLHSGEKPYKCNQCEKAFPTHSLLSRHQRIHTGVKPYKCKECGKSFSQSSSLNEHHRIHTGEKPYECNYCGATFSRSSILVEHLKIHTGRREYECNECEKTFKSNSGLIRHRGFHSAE
B8: RAC-alpha serine/threonine-protein kinase (Homo sapiens), P31749 (parent)
chain: B1 chain
partner: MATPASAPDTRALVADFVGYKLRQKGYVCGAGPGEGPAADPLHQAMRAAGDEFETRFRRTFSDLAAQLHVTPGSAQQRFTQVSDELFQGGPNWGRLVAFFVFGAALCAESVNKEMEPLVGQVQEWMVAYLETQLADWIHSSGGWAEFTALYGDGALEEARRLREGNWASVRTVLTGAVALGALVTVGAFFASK
B9: RAC-alpha serine/threonine-protein kinase (Homo sapiens), P31749 (parent)
chain: B1 chain
partner: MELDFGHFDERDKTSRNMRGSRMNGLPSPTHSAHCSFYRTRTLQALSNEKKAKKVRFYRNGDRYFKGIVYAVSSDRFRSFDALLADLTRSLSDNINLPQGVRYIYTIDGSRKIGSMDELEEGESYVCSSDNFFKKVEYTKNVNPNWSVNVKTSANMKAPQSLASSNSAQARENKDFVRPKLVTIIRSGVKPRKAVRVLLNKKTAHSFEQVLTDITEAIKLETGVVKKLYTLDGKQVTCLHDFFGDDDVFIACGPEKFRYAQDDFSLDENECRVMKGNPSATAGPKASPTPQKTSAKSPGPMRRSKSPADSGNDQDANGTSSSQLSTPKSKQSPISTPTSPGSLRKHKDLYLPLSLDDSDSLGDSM
B10: RAC-alpha serine/threonine-protein kinase (Homo sapiens), P31749 (parent)
chain: B1 chain
partner: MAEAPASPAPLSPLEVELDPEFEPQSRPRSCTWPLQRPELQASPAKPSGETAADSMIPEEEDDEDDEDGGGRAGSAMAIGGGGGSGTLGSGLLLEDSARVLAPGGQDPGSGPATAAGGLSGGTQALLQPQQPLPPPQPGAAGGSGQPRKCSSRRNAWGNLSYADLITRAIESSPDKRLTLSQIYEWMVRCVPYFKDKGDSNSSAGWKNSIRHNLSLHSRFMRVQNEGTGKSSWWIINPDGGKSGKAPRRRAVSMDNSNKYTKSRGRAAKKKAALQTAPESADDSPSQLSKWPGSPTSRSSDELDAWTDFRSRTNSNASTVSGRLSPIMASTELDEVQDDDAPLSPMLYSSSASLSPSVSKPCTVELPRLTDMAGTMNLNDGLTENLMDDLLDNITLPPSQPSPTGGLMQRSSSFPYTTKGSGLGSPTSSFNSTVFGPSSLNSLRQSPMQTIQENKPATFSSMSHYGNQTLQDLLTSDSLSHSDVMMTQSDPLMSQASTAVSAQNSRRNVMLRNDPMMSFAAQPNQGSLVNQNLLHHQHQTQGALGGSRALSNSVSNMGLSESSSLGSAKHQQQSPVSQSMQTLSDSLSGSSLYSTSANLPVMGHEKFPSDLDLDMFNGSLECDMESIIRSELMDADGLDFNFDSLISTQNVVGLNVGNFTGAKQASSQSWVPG
B11: RAC-alpha serine/threonine-protein kinase (Homo sapiens), P31749 (parent)
chain: B1 chain
partner: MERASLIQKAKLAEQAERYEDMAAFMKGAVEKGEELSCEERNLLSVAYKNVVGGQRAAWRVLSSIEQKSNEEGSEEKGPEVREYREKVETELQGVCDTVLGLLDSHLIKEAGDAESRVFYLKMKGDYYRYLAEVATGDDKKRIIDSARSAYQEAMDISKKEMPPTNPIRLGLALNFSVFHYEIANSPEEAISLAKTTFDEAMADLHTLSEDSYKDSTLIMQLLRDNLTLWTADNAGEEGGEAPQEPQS

Variants of: B1
Settings: with tsc1_human TSC1, Q92574

Variant	effect of a mutation on the interaction
E17K	with no effect

Variants of: B2
Settings: with U2AF1, Q01081

Variant	effect of a mutation on the interaction
E17K	with no effect

Variants of: B3
Settings: with uvrag_human UVRAG

Variant	effect of a mutation on the interaction
E17K	with no effect

Variants of: B4
Settings: with wasf3_human WASF3, Q9UPY6

Variant	effect of a mutation on the interaction
E17K	with no effect

Variants of: B5
Settings: with 1433f_human YWHAH

Variant	effect of a mutation on the interaction
E17K	with no effect

Variants of: B6
Settings: with 1433t_human YWHAQ

Variant	effect of a mutation on the interaction
E17K	with no effect

Variants of: B7
Settings: with zn483_human ZNF483, Q8TF39

Variant	effect of a mutation on the interaction
E17K	with no effect

Variants of: B8
Settings: with b2cl2_human BCL2L2, Q92843

Variant	effect of a mutation on the interaction
E17K	disrupting interaction strength

Variants of: B9
Settings: with dcx_human DCX

Variant	effect of a mutation on the interaction
E17K	disrupting interaction strength

Variants of: B10
Settings: with foxo3_human FOXO3, O43524

Variant	effect of a mutation on the interaction
E17K	disrupting interaction strength

Variants of: B11
Settings: with 1433s_human SFN

Variant	effect of a mutation on the interaction
E17K	disrupting interaction strength
